SMILES strings stand for the structures. Where “and” joins values, the source holds several entries; their conditions need not be identical. Identical values can stand only once. The entries are a selection whose mix differs from that of the whole data set. Some results for these compounds are left out of this collection, so the calls shown say nothing about other tests. Inconclusive results are not listed. Calls of active or inactive are those of the source. Calls follow the shape of the dose curve; as a rule, active = well fitted inhibition curve with a large enough effect; inconclusive = small, poorly fitted or top-dose-only effect; inactive = no such curve, though single readings can be large or run the other way.
% is scaled to controls: 0 for no effect and ±100 for the full control effect.

This assay can be described thus: Primary qHTS for Inhibitors of ATXN expression. Also: nearly all actives have a fitted effect of over 55% in size. As to conditions: HEK-293 ATXN2-luciferase reporter, luminescence, 24 h; at 57 µM (top of the series).
Take `CN(C)C1(CNC(=O)c2ccccc2F)CCCCC1`: the activity change, negative = inhibition was inactive: 0.0814%.

As to `Cc1ccc(C(=O)NCC2(N3CCCCC3)CCCCC2)cc1`, the activity change, negative = inhibition was inactive: -17.1%.

Regarding `CC(C)N1C(=O)CC2(CCN(CCOC(=O)C(O)(c3ccccc3)c3ccccc3)CC2)C1=O`, the activity change, negative = inhibition was inactive: 2.68%.

For the compound `CN(C)C1(CNC(=O)c2cccc(Cl)c2)CCCCC1`, the activity change, negative = inhibition was inactive: -4.85%.

Regarding `CCN(CC)CC(C)C(C)OC(=O)C(O)(c1ccccc1)c1ccccc1` (stereo unspecified), the activity change, negative = inhibition is inactive: -0.557%.

On to `COc1cc(SC)ccc1C(=O)NCC1(N(C)C)CCCCC1`, for which the activity change, negative = inhibition is inactive: 1.5%.

`O=C(NCC1(N2CCCCC2)CCCCC1)c1cc([N+](=O)[O-])ccc1Cl`: the activity change, negative = inhibition was inactive: 10.8%.

Consider `CCN1CCCC(OC(=O)C2(O)c3ccccc3C=Cc3ccccc32)C1` (stereo unspecified), for which the activity change, negative = inhibition is inactive: -12.1%.

Consider `Cc1cc(C(=O)NCC2(N3CCCCC3)CCCCC2)ccc1[N+](=O)[O-]`, for which the activity change, negative = inhibition is inactive: 20.5%.

Consider `O=C(NCC1(N2CCCCC2)CCCCC1)c1cccc(Br)c1`, for which the activity change, negative = inhibition is inactive: -5.23%.

Consider `COc1ccc(C(=O)NCC2(N(C)C)CCCCC2)cc1`, for which the activity change, negative = inhibition is inactive: 3.6%.

On to `CCOc1cccc(C(=O)NCC2(N(C)C)CCCCC2)c1`, for which the activity change, negative = inhibition is inactive: -6.87%.

In the case of `O=C(NCC1(N2CCCCC2)CCCCC1)c1cc(F)c(F)cc1Cl`, the activity change, negative = inhibition is inactive: 2.13%.

For `CCCCOc1ccccc1C(=O)NCC1(N(C)C)CCCCC1`, the activity change, negative = inhibition is inactive: -14.3%.

On to `CN(C)C1(CNC(=O)c2ccccc2[N+](=O)[O-])CCCCC1`, for which the activity change, negative = inhibition was inactive: 2.15%.

As to `CN(C)c1ccc(C(=O)NCC2(N(C)C)CCCCC2)cc1`, the activity change, negative = inhibition is inactive: 7.02%.

As to `CN(C)C1CCCC1OC(=O)C(O)(c1ccccc1)c1ccccc1` (stereo unspecified), the activity change, negative = inhibition is inactive: 0.687%.

With `O=C(NCC1(N2CCCCC2)CCCCC1)c1cccc(Cl)c1`, the activity change, negative = inhibition was inactive: -1.32%.

Regarding `COc1ccc(C(=O)NCC2(N(C)C)CCCCC2)cc1Cl`, the activity change, negative = inhibition is inactive: -6.28%.

For the compound `COc1cccc(C(=O)NCC2(N3CCCCC3)CCCCC2)c1`, the activity change, negative = inhibition is inactive: 5.8%.

As to `COc1ccc(Cl)cc1C(=O)NCC1(N(C)C)CCCCC1`, the activity change, negative = inhibition was inactive: -6.44%.

As to `CN(C)C1(CNC(=O)c2ccc(Br)cc2)CCCCC1`, the activity change, negative = inhibition is inactive: -18.9%.

As for `CN(C)c1cccc(C(=O)NCC2(N(C)C)CCCCC2)c1`, the activity change, negative = inhibition was inactive: -2.27%.

Turning to `CC(C)Oc1ccc(C(=O)NCC2(N(C)C)CCCCC2)cc1`, the activity change, negative = inhibition is inactive: 3.96% and inactive: 5.65%.

`O=C(OCCN1CCCC1)C(O)(c1ccccc1)c1ccccc1`: the activity change, negative = inhibition was inactive: 18.7%.

On to `COc1cc(C(=O)NCC2(N(C)C)CCCCC2)cc(OC)c1OC`, for which the activity change, negative = inhibition was inactive: 7.55%.

`Cc1cccc(C(=O)NCC2(N(C)C)CCCCC2)c1`: the activity change, negative = inhibition is inactive: 5.04%.

With `COc1ccc(Br)c(C(=O)NCC2(N3CCCCC3)CCCCC2)c1`, the activity change, negative = inhibition was inactive: -2.18%.

On to `CC(C)COc1ccc(C(=O)NCC2(N(C)C)CCCCC2)cc1`, for which the activity change, negative = inhibition is inactive: -28.8%.

Turning to `O=C(OC1CN2CCC1CC2)C(CO)(c1ccccc1)c1ccccc1` (stereo unspecified), the activity change, negative = inhibition is inactive: -8.48%.

Turning to `COc1cccc(C(=O)NCC2(N3CCOCC3)CCCCC2)c1`, the activity change, negative = inhibition is inactive: 11.2%.

The values are drawn from PubChem BioAssay AID1745845 (National Center for Advancing Translational Sciences (NCATS), 2022).
